Source: patent publication US6833372B2, “Non-peptide GnRH agents, Pharmaceutical compositions, and methods for their use” (Pfizer, Inc., priority 2002, dated 2004)

Biological target: T1, GGH3 cells (GH3 cells stably transfected with the rat GnRH receptor) (Rattus norvegicus, UniProt P30969)
T1 construct: host or cells: GH3 cells stably transfected (GGH3), whole cells
T1 sequence (P30969 1-327): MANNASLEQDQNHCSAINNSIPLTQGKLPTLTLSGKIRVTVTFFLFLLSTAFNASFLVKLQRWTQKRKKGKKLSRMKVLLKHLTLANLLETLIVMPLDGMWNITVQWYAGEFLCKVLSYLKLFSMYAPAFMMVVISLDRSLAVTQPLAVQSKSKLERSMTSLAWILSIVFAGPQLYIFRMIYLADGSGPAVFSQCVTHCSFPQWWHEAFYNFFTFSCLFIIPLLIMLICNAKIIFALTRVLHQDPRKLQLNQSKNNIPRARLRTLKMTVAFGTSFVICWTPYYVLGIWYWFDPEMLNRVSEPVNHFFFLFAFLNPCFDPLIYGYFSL
Test: Effect of compounds on 125I-GnRH-A binding to GGH3 cells (competition radioligand binding, whole cells)
Conditions: on ice 2 hr
Experimental: Cell Culture. GGH3 cells (Dr. William Chin, Harvard Medical School, Boston, Mass.) are grown in low glucose Dulbecco's modified Eagle's medium (DMEM) containing 100 U/mL penicillin/streptomycin, 0.6 g/L G418 and 10% heat-inactivated FBS.
The radioiodinated agonist analog of GnRH, ^125I-GnRH-A, is used as the radioligand. One μg of GnRH-A diluted in 0.1M acetic acid is added to an Ioogen®-coated borosilicate glass tube (Pierce) containing 35 μl of 0.05 M phosphate buffer (pH 7.4-7.6) and 1 mCi of Na[^125I]. The reaction mixture is vortexed and incubated for 1 min at room temperature. […] Fractions are assessed for biological activity by radioligand binding.
Approximately two million GGH3 cells/tube are utilized for radioligand binding. ^125I-GnRH-A (approximately 0.1-0.3 nM) is incubated with cells in the presence or absence of competing agents in a final volume of 300 μl binding assay buffer [50 mM HEPES (pH 7.4), 1 mM EDTA, 2.5 mM MgCl2, and 0.1% BSA] to test the ability of compounds to displace agonist binding. […] Filters are counted on a gamma counter.
In order to assess the specific functionality, compounds were assessed for their ability to inhibit ^125I-GnRH-A binding to GGH3 cells. […]

- ability to inhibit 125I-GnRH-A binding to GGH3 cells: blocked
Substance: [D-Ala^6, des-Gly^10]proethylamide^9-LHRH [GnRH-A]
